Test results as given in PMC12024540, “Peptide-Based Regulation of TNF-α-Mediated Cytotoxicity” (Biomolecules, 2025).

Target: T1, Human TNFR1 (soluble) recombinant protein (Homo sapiens, UniProt P19438)
T1 construct: Human TNFR1 (soluble) recombinant protein; purchased PeproTech
T1 sequence (P19438 41-201 limits assumed): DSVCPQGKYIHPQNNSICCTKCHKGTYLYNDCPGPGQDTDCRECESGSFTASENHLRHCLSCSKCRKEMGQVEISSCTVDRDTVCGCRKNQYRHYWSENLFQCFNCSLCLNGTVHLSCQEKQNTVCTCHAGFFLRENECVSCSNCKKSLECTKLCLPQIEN
Experiment: Microscale thermophoresis (MST) binding to labeled TNFR1
Description: MST was performed using a Monolith NT.115 Pico instrument (NanoTemper Technologies, Munich, Germany). In this technique, thermophoresis applied by irradiation with an infrared (IR) laser diode disrupts a ligand-target binding interaction that has equilibrated. The concentration of fluorescent molecules can be altered by the direct movement of molecules within a temperature gradient. The effect on the fluorescence signal is monitored continuously over time. […] Mixtures of labeled molecules and functional peptides or TNFR1 were prepared in PBS. Labeled molecules were maintained at 20 nM for the peptide binding experiments, and the ligand concentrations varied according to the molecule with 16 serial dilutions. The peptide-labeled molecule mixture was loaded into the glass capillaries after 20 min incubation in the dark. Results were analyzed using M.O. Affinity Analysis v.2.3 software.

Kd: 4.94 nM
Substance: TNF-α
